{
  "source": "paper PMC4076210",
  "about": "“Discovery of Novel AKT Inhibitors with Enhanced Anti-Tumor Effects in Combination with the MEK Inhibitor” (PLoS ONE, 2014)",
  "test": "Compound concentration in blood and tumor (HPLC/MS/MS)",
  "type": "in vivo, mouse",
  "method": "Protein lysates were analyzed by phospho-PRAS40 ELISA according to the methods described above. Concentration of the test compounds in the tissue and blood was analyzed using protein precipitation with acetonitrile, followed by HPLC/MS/MS analysis using positive ion atmospheric pressure chemical ionization or Turbo ionspray ionization (API 4000 or API 5000, Applied Biosystems). The lower level of detection of compound was 10 ng/mL and the assays were linear over a 100- to a 1000-fold drug concentration range.\nThe pharmacodynamic studies were carried out in SCID mice bearing BT474 tumor xenografts. […] Protein lysates were prepared and the phospho-PRAS40 ELISA was performed on tumor samples according to the methods described in the main text. Concentration of the test compounds was analysed by HPLC/MS/MS analysis.",
  "note": "Values joined by “and” are separate entries in the source; they are usually repeats but may differ in a detail not shown here. Identical values can stand only once.",
  "data": [
    {"smiles": "Cn1ncc(Cl)c1-c1cc(C(=O)N[C@H](CN)Cc2cccc(F)c2)sc1Cl", "note": "[GSK2110183]", "values": [
      {"measurement": "blood concentrations resulting in 60% inhibition of phospho-PRAS40", "setting": "100 mg/kg QDx7, time course", "result": "3000 to 4000", "unit": "nM"},
      {"measurement": "concentration at 2 h", "setting": "SCID, mouse, whole blood, 100 mg/kg QDx7 oral, 2 h post last dose, read-out: circulating (blood) concentration", "result": "~3 µM and ~1500 ng/mL"}
    ]}
  ]
}
